From PubChem BioAssay AID862 (The Scripps Research Institute Molecular Screening Center, 2007) come the findings set out here.

The entries are a selection whose mix differs from that of the whole data set. Calls of active or inactive are those of the source.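 How the source made its calls: active means inhibition above the mean inhibition across all screened compounds plus 3 SD (cut at about 44% in these data); inactive means the rest.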

A word on the inhibition: it is the drop in the measured response relative to a control, in per cent.

This test can be described thus: IL-6 driven STAT3 reporter inhibitors, primary screen, U3A cells, luciferase, luminescence, MLSCN library (AID 862).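 Further: 0% = DMSO only wells and 100% = 100 µM nifuroxazide control wells.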 The conditions noted are these: IL-6 STAT3-luciferase reporter, at 5.5 µM, active compounds read high, host cell line lacks STAT1.
For the molecule `CP(=O)(OC12CC3CC(CC(C3)C1)C2)OC12CC3CC(CC(C3)C1)C2`, the inhibition was inactive: 6.9%.

As to `CCOC(=O)c1ccc(NP(C)(=O)Oc2ccc(Cl)cc2)cc1` (stereo not given), the inhibition is inactive: 1%.

Turning to `CN(C)C(=O)c1c([N+](=O)[O-])cc([N+](=O)[O-])cc1[N+](=O)[O-]`, the inhibition was inactive: 3.1%.

In the case of `CP(=O)(Nc1ccc(Cl)cc1)Oc1ccc(F)cc1` (stereo not given), the inhibition is inactive: 4.1%.

For `COc1ccccc1OP(C)(=O)Nc1ccccc1Br` (stereo not given), the inhibition was inactive: 14.6%.

As to `CC(C)(C)c1ccc(OP(C)(=O)O)cc1`, the inhibition is inactive: 4.3%.

Take `CCc1ccc(OP(C)(=O)Nc2cccnc2)cc1` (stereo not given): the inhibition is inactive: -5.3%.

For the molecule `CP(=O)(Oc1ccccc1)N1CCOC1=O` (stereo not given), the inhibition is inactive: 15.4%.

Regarding `COc1ccccc1OP(C)(=O)Nc1c(C)n(C)n(-c2ccccc2)c1=O` (stereo not given), the inhibition was inactive: -3.1%.

As for `COc1ccc(OP(C)(=O)Nc2ccc(Br)cc2)cc1` (stereo not given), the inhibition is inactive: 5%.

As for `CCN(CC)CC(O)COC(=O)C(O)(c1ccccc1)C1CCCCC1` (stereo not given), the inhibition is inactive: -2.1%.

For `CCc1ccc(OP(C)(=O)O)cc1`, the inhibition is inactive: 5.2%.

In the case of `COc1ccccc1OP(C)(=O)Nc1ccc(C)cc1C` (stereo not given), the inhibition is inactive: 4.2%.

As to `CP(=O)(Nc1ccccn1)Oc1ccccc1` (stereo not given), the inhibition is inactive: 2.8%.

For `Cc1c(NP(C)(=O)Oc2ccc(C(C)C)cc2)c(=O)n(-c2ccccc2)n1C` (stereo not given), the inhibition was inactive: 1.7%.

Take `O=[N+]([O-])c1cc([N+](=O)[O-])c(Nc2ccccn2)c([N+](=O)[O-])c1`: the inhibition was inactive: 19.4%.

On to `CN(C)CCOC(=O)C(O)(c1ccccc1)C1CCCC1` (stereo not given), for which the inhibition is inactive: -1%.

In the case of `COc1ccc(OP(C)(=O)Nc2ccccn2)cc1` (stereo not given), the inhibition is inactive: 7%.

Consider `CP(=O)(Nc1ccc(Cl)cc1Cl)Oc1ccccc1` (stereo not given), for which the inhibition was inactive: -4.8%.

`CP(=O)(OCCOc1ccccc1)OCCOc1ccccc1`: the inhibition was inactive: 16.6%.

For `Cc1nc2ccc3ccccc3c2o1.O=[N+]([O-])c1cc([N+](=O)[O-])c(O)c([N+](=O)[O-])c1`, the inhibition is inactive: -1.7%.

For the molecule `COc1ccc(OP(C)(=O)Nc2ccccc2Br)cc1` (stereo not given), the inhibition is inactive: 4%.

As for `COc1ccccc1OP(C)(=O)Nc1ccc(C)c(C)c1` (stereo not given), the inhibition was inactive: 5.8%.

As to `Cc1cc(C)cc(OP(C)(=O)Nc2cccc(C(F)(F)F)c2)c1` (stereo not given), the inhibition is inactive: 2.6%.

Consider `CP(=O)(Nc1ccccc1)Oc1ccc(F)cc1` (stereo not given), for which the inhibition is inactive: 9.5%.

Regarding `CCN(CC)CCCOC(=O)C(O)(c1ccccc1)C1CCCCC1` (stereo not given), the inhibition was inactive: 7%.

For the molecule `COc1ccc(OP(C)(=O)Nc2ccc(SC(F)(F)F)cc2)cc1` (stereo not given), the inhibition was inactive: 3.3%.

In the case of `CCOC(=O)c1ccc(NP(C)(=O)Oc2ccc(F)cc2)cc1` (stereo not given), the inhibition was inactive: 4.9%.

As to `O=C(OCCN1CCN(CCOCc2ccccc2)CC1)C(O)(c1ccccc1)c1ccccc1`, the inhibition is inactive: 14.2%.

In the case of `CC(C)c1ccc(OP(C)(=O)Nc2ccc(SC(F)(F)F)cc2)cc1` (stereo not given), the inhibition is inactive: 0.8%.

For the molecule `CP(=O)(Nc1ccccc1F)Oc1ccccc1` (stereo not given), the inhibition was inactive: -1.9%.

As to `Cc1ccccc1NP(C)(=O)Nc1ccccc1C`, the inhibition was inactive: 3.7%.

`CP(=O)(Nc1ccc2c(c1)OCCO2)Oc1ccccc1` (stereo not given): the inhibition was inactive: 8.8%.

On to `CCOP(C)(=S)SCC(=O)NC(C)(CC)C(=O)O` (stereo not given), for which the inhibition was inactive: 5%.

Turning to `O=[N+]([O-])c1cc([N+](=O)[O-])c(NCC2CCS(=O)(=O)C2)c([N+](=O)[O-])c1` (stereo not given), the inhibition was inactive: 0.6%.

Take `COc1ccc(NP(C)(=O)Oc2ccccc2OC)cc1` (stereo not given): the inhibition was inactive: 13.4%.

Regarding `CN(C)CCOC(=O)C(O)(c1ccccc1)C1CCCCC1` (stereo not given), the inhibition is inactive: 4%.

As to `COc1ccc(OP(C)(=O)Nc2cccc(Br)c2)cc1` (stereo not given), the inhibition is inactive: -0.7%.

In the case of `CCCOc1ccc(NP(C)(=O)Oc2ccc(Cl)cc2)cc1` (stereo not given), the inhibition was inactive: -6.7%.

As to `CP(=O)(Nc1ccc(SC(F)(F)F)cc1)Oc1ccccc1` (stereo not given), the inhibition was inactive: -4.1%.

With `CN1CCCCC1COC(=O)C1(O)c2ccccc2CCc2ccccc21` (stereo not given), the inhibition was inactive: 3.2%.

For the molecule `COc1ccccc1OP(C)(=O)Nc1c(C)cccc1C` (stereo not given), the inhibition is inactive: 4.1%.

Take `Cc1nc2ccc3ccccc3c2s1.O=[N+]([O-])c1cc([N+](=O)[O-])c(O)c([N+](=O)[O-])c1`: the inhibition was inactive: 11.6%.

On to `O=[N+]([O-])c1cc([N+](=O)[O-])c(-n2nnc3ccccc32)c([N+](=O)[O-])c1`, for which the inhibition was inactive: -0.4%.

Consider `Cc1cc(C)cc(OP(C)(=O)Nc2ccccn2)c1` (stereo not given), for which the inhibition is inactive: 0.2%.

`CP(=O)(Nc1cccc(Br)c1)Oc1ccccc1` (stereo not given): the inhibition is inactive: 7.6%.

`Cc1ccc(C)c(NP(C)(=O)Oc2ccccc2)c1` (stereo not given): the inhibition was inactive: 5.5%.

`Cc1cc(C)cc(OP(C)(=O)Nc2ccc(C)cc2C)c1` (stereo not given): the inhibition is inactive: 7.4%.

Turning to `CCOC(=O)c1ccc(NP(C)(=O)Oc2cc(C)cc(C)c2)cc1` (stereo not given), the inhibition was inactive: -2.6%.

Turning to `CC1=NCCc2c1[nH]c1ccccc21.O=[N+]([O-])c1cc([N+](=O)[O-])c(O)c([N+](=O)[O-])c1`, the inhibition is inactive: -5.3%.

Regarding `COc1ccc(OP(C)(=O)Nc2cccc(F)c2)cc1` (stereo not given), the inhibition was inactive: -4.9%.

`COc1ccccc1OP(C)(=O)Nc1cc(Cl)ccc1C` (stereo not given): the inhibition is inactive: 7%.

Take `Cc1cc(C)cc(OP(C)(N)=O)c1` (stereo not given): the inhibition is inactive: 7.6%.

For `CCOC(=O)c1ccc(NP(C)(=O)Oc2ccccc2)cc1` (stereo not given), the inhibition is inactive: -6.8%.

Take `Cc1ccc(NP(C)(=O)Oc2ccccc2)c(C)c1` (stereo not given): the inhibition was inactive: 0.9%.

As to `COc1ccccc1OP(C)(=O)Nc1ccc(C)cc1` (stereo not given), the inhibition is inactive: 13.1%.

Take `Cc1cccc(C)c1OP(C)(N)=O` (stereo not given): the inhibition was inactive: 17.1%.

In the case of `CC(C)(C)c1ccc(OP(C)(=O)Nc2ccc(SC(F)(F)F)cc2)cc1` (stereo not given), the inhibition was inactive: 4.6%.

`O=[N+]([O-])c1ccc2c(c1)C=Nc1ccccc1O2`: the inhibition was inactive: -4.4%.

In the case of `CCN(CC)CCCOC(=O)C(O)(c1ccccc1)c1ccccc1`, the inhibition is inactive: -2.8%.

Consider `CP(=O)(Nc1ccccn1)Oc1ccc(Cl)cc1` (stereo not given), for which the inhibition was inactive: -10.4%.

As for `CCOP(C)(=S)SCC(=O)NC(C)C(=O)O` (stereo not given), the inhibition is inactive: 4.1%.

For `CCOC(=O)c1ccc(NP(C)(=O)Oc2ccc(OC)cc2)cc1` (stereo not given), the inhibition was inactive: 10.2%.

In the case of `Cc1cc(C)cc(OP(C)(=O)Nc2ccc(SC(F)(F)F)cc2)c1` (stereo not given), the inhibition is inactive: -4.9%.

As to `CP(=O)(NC(=O)Nc1ccccc1)Oc1ccccc1` (stereo not given), the inhibition was inactive: 3.2%.

For the molecule `CP(=O)(Oc1ccccc1)OC(c1ccccc1)C(F)(F)F` (stereo not given), the inhibition was inactive: -4.9%.

Consider `Cc1cccc(C)c1OP(C)(=O)Nc1ccc(SC(F)(F)F)cc1` (stereo not given), for which the inhibition is inactive: -7.4%.

Regarding `COc1ccccc1OP(C)(=O)Nc1ccccc1` (stereo not given), the inhibition was inactive: 4.9%.

Consider `CP(=O)(Nc1ccccc1Br)Oc1ccccc1` (stereo not given), for which the inhibition is inactive: 15.1%.

`CP(=S)(Nn1cnnc1)Oc1ccccc1` (stereo not given): the inhibition was inactive: 9.8%.
